{"sequences": {"note": "Sequences of proteins named here, by UniProt entry; tags and fusion partners are left off.", "UniProt P16581, whole entry": "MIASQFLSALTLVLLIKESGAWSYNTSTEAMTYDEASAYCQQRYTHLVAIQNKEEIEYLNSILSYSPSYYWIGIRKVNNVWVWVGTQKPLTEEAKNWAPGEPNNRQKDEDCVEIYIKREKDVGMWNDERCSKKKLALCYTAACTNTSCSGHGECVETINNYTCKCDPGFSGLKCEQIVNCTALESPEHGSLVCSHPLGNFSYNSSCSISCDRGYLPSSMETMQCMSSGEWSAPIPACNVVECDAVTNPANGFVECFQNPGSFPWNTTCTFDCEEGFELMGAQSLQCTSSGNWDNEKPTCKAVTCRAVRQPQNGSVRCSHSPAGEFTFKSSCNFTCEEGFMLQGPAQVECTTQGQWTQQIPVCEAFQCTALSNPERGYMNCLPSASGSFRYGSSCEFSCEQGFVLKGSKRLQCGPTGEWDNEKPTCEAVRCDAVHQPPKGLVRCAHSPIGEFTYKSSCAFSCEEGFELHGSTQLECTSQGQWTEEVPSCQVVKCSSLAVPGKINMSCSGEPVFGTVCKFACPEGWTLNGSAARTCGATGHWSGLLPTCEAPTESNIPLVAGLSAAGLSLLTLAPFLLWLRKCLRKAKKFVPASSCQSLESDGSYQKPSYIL"}, "source": "PubChem BioAssay AID686992", "about": "(Broad Institute, 2013)", "note": "The entries are a selection whose mix differs from that of the whole data set. Some structures show a salt or complex split into parts, the way the source records it. The source made the active and inactive calls.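 Rule for the calls: active = mean E-selectin-positive cell signal at least 10% of the positive control, reached in at least 60% of replicates, without over 20% cell loss; inconclusive = no rule given, readout overlaps actives, possibly toxicity-flagged; inactive = the rest, including those meeting only one limit.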"}
{"molecular_target": "E-selectin (Homo sapiens) (UniProt P16581)", "assay": "inducers of endothelial E-selectin expression – imaging, HUVEC, immunofluorescence imaging, single point, primary screen (AID 686992);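 note: signal is the percent of cells scored E-selectin positive by PE staining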", "conditions": "at 7.58 µM, hits give high values, normalized: neutral wells 0, TNF-alpha wells 100", "procedure,_shortened": "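Test system – human umbilical vein endothelial cells (HUVEC), E-selectin induction · Input – 3,000 HUVEC seeded per well · Buffer or medium – EGM-2, gelatin · Compound dosing – single-point compound dose · Detection – immunofluorescence imaging · Measure – percent E-selectin-positive cells · Controls – TNF-alpha high, DMSO low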"}
{"smiles": "CCCCCOc1ccc(NP(C)(=O)Oc2ccc(Cl)cc2Cl)cc1", "note": "(stereo not given)", "activation": "inactive: 0.216%"}
{"smiles": "Cc1c([N+](=O)[O-])cc([N+](=O)[O-])c(Br)c1[N+](=O)[O-]", "activation": "inactive: -0.004%"}
{"smiles": "CCN(CC)CCCNc1ccccc1[N+](=O)[O-].O=[N+]([O-])c1cc([N+](=O)[O-])c(O)c([N+](=O)[O-])c1", "activation": "inactive: -0.033%"}
{"smiles": "COc1ccc2c(c1O)-c1c(O)c(OC)cc3c1[C@H](C2)[N+](C)(C)CC3.O=[N+]([O-])c1cc([N+](=O)[O-])c([O-])c([N+](=O)[O-])c1[O-]", "activation": "inactive: -0.143%"}
{"smiles": "O=C(OC1CN2CCC1CC2)c1ccc([N+](=O)[O-])cc1", "note": "(stereo not given)", "activation": "inactive: -4.11%"}
{"smiles": "O=C(OCCN1CCN(CCOCc2ccccc2)CC1)C(O)(c1ccccc1)c1ccccc1", "activation": "inactive: -0.082%"}
{"smiles": "CC(C)c1ccc(OP(C)(=O)Nc2ccc(SC(F)(F)F)cc2)cc1", "note": "(stereo not given)", "activation": "inactive: 0.176%"}
{"smiles": "O=[N+]([O-])c1cc([N+](=O)[O-])c(Nc2ccc(Cl)cc2)c([N+](=O)[O-])c1", "activation": "inactive: -0.587%"}
{"smiles": "O=[N+]([O-])c1cc([N+](=O)[O-])c(C(F)(F)F)c([N+](=O)[O-])c1O", "activation": "inactive: -0.033%"}
{"smiles": "CP(=O)(Nc1ccc(SC(F)(F)F)cc1)Oc1ccc(F)cc1", "note": "(stereo not given)", "activation": "inactive: 5.18%"}
{"smiles": "Cc1c(C(c2ccc3c(c2)OCO3)c2c(C)n(C)n(-c3ccccc3)c2=O)c(=O)n(-c2ccccc2)n1C.O=[N+]([O-])c1cc([N+](=O)[O-])c(O)c([N+](=O)[O-])c1", "activation": "inactive: 5.25%"}
{"smiles": "O=[N+]([O-])c1ccc(OP2(=O)COCCO2)cc1", "note": "(stereo not given)", "activation": "inactive: -0.164%"}
{"smiles": "Cc1cc(-c2cccc3ccccc23)c(C)cn1.O=[N+]([O-])c1cc([N+](=O)[O-])c(O)c([N+](=O)[O-])c1", "activation": "inactive: -0.147%"}
{"smiles": "CN(C)C(=O)c1c([N+](=O)[O-])cc([N+](=O)[O-])cc1[N+](=O)[O-]", "activation": "inactive: 0.376%"}
{"smiles": "COc1ccccc1OP(C)(=O)Nc1ccccc1Br", "note": "(stereo not given)", "activation": "inactive: 10.5%"}
{"smiles": "CCc1ccc(OP(C)(=O)Nc2cccnc2)cc1", "note": "(stereo not given)", "activation": "inactive: 0.5%"}
{"smiles": "O=[N+]([O-])c1cc([N+](=O)[O-])c(Nc2ccccn2)c([N+](=O)[O-])c1", "activation": "inactive: -2.48%"}
{"smiles": "COc1ccccc1OP(C)(=O)Nc1ccc(Br)cc1", "note": "(stereo not given)", "activation": "inactive: 0.317%"}
{"smiles": "CP(=O)(Nc1ccc(Cl)cc1Cl)Oc1ccccc1", "note": "(stereo not given)", "activation": "inactive: -0.0725%"}
{"smiles": "CCCCCCCCCCCCCCCC1C[N+](C)(C)CCOP(C)(=O)O1", "note": "(stereo not given)", "activation": "inactive: -0.283%"}
{"smiles": "CP(=O)(OCCOc1ccccc1)OCCOc1ccccc1", "activation": "inactive: 7.18%"}
{"smiles": "Cc1cc(C)cc(OP(C)(=O)Nc2cccc(C(F)(F)F)c2)c1", "note": "(stereo not given)", "activation": "inactive: 2.44%"}
{"smiles": "O=C1C(O)=C([N+](=O)[O-])C(=O)C(O)=C1[N+](=O)[O-]", "activation": "inactive: 0.141%"}
{"smiles": "Cc1cc(C)cc(OP(C)(N)=O)c1", "note": "(stereo not given)", "activation": "inactive: -2.07%"}
{"smiles": "CCOC(=O)c1ccc(NP(C)(=O)Oc2ccccc2)cc1", "note": "(stereo not given)", "activation": "inactive: -1.59%"}
{"smiles": "O=[N+]([O-])c1ccc2c(c1)C=Nc1ccccc1O2", "activation": "inactive: 0.422%"}
{"smiles": "Cc1cccc(C)c1OP(C)(N)=O", "note": "(stereo not given)", "activation": "inactive: -1.24%"}
{"smiles": "O=[N+]([O-])c1cc([N+](=O)[O-])c(Nc2cccnc2)c([N+](=O)[O-])c1", "activation": "inactive: -0.214%"}
{"smiles": "COc1ccccc1-c1ccccn1.O=[N+]([O-])c1cc([N+](=O)[O-])c(O)c([N+](=O)[O-])c1", "activation": "inactive: 0.222%"}
{"smiles": "CCN(CC)CCCOC(=O)C(O)(c1ccccc1)c1ccccc1", "activation": "inactive: -2.99%"}
{"smiles": "O=[N+]([O-])c1cc([N+](=O)[O-])c(O)c([N+](=O)[O-])c1.c1ccc(Oc2ccncc2)cc1", "activation": "inactive: -0.181%"}
{"smiles": "CP(=O)(Oc1ccccc1)OC(c1ccccc1)C(F)(F)F", "note": "(stereo not given)", "activation": "inactive: -0.368%"}
{"smiles": "CP(=O)(Nc1ccc(SC(F)(F)F)cc1)Oc1ccc(Cl)cc1", "note": "(stereo not given)", "activation": "inactive: 0.0295%"}
{"smiles": "COc1ccccc1OP(C)(=O)Nc1ccccc1", "note": "(stereo not given)", "activation": "inactive: 0.0365%"}
{"smiles": "COc1ccc(-c2ccccn2)cc1.O=[N+]([O-])c1cc([N+](=O)[O-])c(O)c([N+](=O)[O-])c1", "activation": "inactive: 0.086%"}
{"smiles": "CP(=O)(Nc1ccc(SC(F)(F)F)cc1)Oc1ccccc1", "note": "(stereo not given)", "activation": "inactive: 0.646%"}
{"smiles": "CN1CCCCC1COC(=O)C1(O)c2ccccc2CCc2ccccc21", "note": "(stereo not given)", "activation": "inactive: -0.243%"}
{"smiles": "O=[N+]([O-])c1cc([N+](=O)[O-])c(Nc2nnnn2CCO)c([N+](=O)[O-])c1", "activation": "inactive: 0.0155%"}
{"smiles": "O=[N+]([O-])c1cc([N+](=O)[O-])c(-c2cnn(-c3ccccc3)c2)c([N+](=O)[O-])c1", "activation": "inactive: 0.0485%"}
{"smiles": "CN(Cc1cccnc1)C(=O)COc1ccc(Cl)c(Cl)c1.O=[N+]([O-])c1cc([N+](=O)[O-])c(O)c([N+](=O)[O-])c1", "activation": "inactive: 0.13%"}
{"smiles": "CP(=O)(Nc1cccc(Br)c1)Oc1ccccc1", "note": "(stereo not given)", "activation": "inactive: -1.32%"}
{"smiles": "CCOC(=O)c1ccc(NP(C)(=O)Oc2cc(C)cc(C)c2)cc1", "note": "(stereo not given)", "activation": "inactive: -1.09%"}
{"smiles": "COc1ccccc1OP(C)(=O)Nc1cccc(Br)c1", "note": "(stereo not given)", "activation": "inactive: -0.546%"}
{"smiles": "CC1=NCCc2c1[nH]c1ccccc21.O=[N+]([O-])c1cc([N+](=O)[O-])c(O)c([N+](=O)[O-])c1", "activation": "inactive: -0.09%"}
{"smiles": "O=C(O)c1cccc(Nc2c([N+](=O)[O-])cc([N+](=O)[O-])cc2[N+](=O)[O-])c1", "activation": "inactive: -0.524%"}
